Binding of CDR-mutated scFvs to a peptide of the spike HR2 region

Binding partner: SARS-CoV-2 spike HR2 peptide, sequence PDVDLGDISGINAS.

Parent: Ab-14, a human scFv built as VH, three GGGGS repeats, VL. Only the CDRs of the light chain vary.
VH: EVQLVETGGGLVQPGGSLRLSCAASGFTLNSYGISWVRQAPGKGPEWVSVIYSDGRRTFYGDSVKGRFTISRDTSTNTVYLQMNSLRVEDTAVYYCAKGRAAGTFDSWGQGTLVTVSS
VL: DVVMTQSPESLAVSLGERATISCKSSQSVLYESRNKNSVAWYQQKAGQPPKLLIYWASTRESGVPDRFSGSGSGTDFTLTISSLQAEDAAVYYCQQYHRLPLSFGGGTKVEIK

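Phage display of a naive human antibody library on the peptide gave the parent. These sequences belong to a second round, designed from the earlier measurements on random variants of the parent. Group labels follow the data file (En: ensemble of fine-tuned language models; GP: Gaussian process model; HC: hill climbing; Gen: genetic algorithm; Gibbs: Gibbs sampling; a sequence that several methods proposed may carry one label only). In AlphaSeq, yeast of one mating type display the scFv and yeast of the other type display the target. Binding brings cells together so that they mate, and sequencing counts the barcode pairs among the diploids. Scores were corrected for input abundance and mapped to Kd with protein pairs of known affinity run in the same pool. There are six technical replicates.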

Each variant is given by its three light chain CDRs, as the data file delimits them; those of the parent are KSSQSVLYESRNKNSVA, WASTRES, QQYHRLPLS. This list holds designs with more than six substitutions. The Kd shown is the geometric mean over detected replicates; a lower Kd is a better binder. Where no diploid with the target was found in any replicate, the entry reads "no signal": below detection, most likely a poor binder, though not proof of it. Values of this round are not directly comparable with the first-round values of the same sequences. Three control strains display no target. For all light chain designs, 4% of the pairings with them gave a signal, with a median of 430 nM and one signal in twenty below 38 nM, so weak values seen in few replicates may be background. The authors' rule: three or more of the six replicates give a measured affinity, fewer mean a poor binder. Of ten entries with the parent sequence, four were seen in most replicates (averages 2.2 nM to 240 nM), three in one and three in none, so single entries are noisy.

Variant KVSQQGLYGDRNANSVA | NASTRED | QQYHRLPLY [GP_Gibbs] showed 3.0 nM (6 of 6 replicates). For KVQGLMNIEQMNSKSVA | QSSTREN | QQYHRLPLS [En_HC], the assay gave 2.7 nM (6 of 6 replicates). Variant KVEQLHLYESRNKNAVA | NGSTRES | QQYHRLPLS [GP_Gibbs] showed 660 pM (6 of 6 replicates). For HISMMVGTKGYAKNSVA | NEQTRYD | QQYHRLPLS [En_HC], the assay gave 370 pM (6 of 6 replicates). For KLSQSGLYEMRNKNSVA | QASQRLQ | QQYHRLPLS [GP_Gibbs], the assay gave 3.9 nM (6 of 6 replicates). Variant QINMEMYHDLDDAQNVA | DAMTEIK | QQYNRLPLS [En_Gibbs] showed 39 nM (3 of 6 replicates). Variant KLQFSWWYESRNKNSVA | SASQREV | QQYHRLPLS [GP_Gibbs] gave 1.2 nM (6 of 6 replicates). For KSSWGVDDESRNDNSVA | KASTRLS | QQYHRLPLS [GP_Gibbs], the assay gave 1.1 nM (6 of 6 replicates). For KSSISVEYQERLINSVA | QASQRES | QQYHRLPLS [GP_Gibbs], the assay gave 7.3 nM (6 of 6 replicates).

With SLAESVHMESRNKNNVA | DNSTRES | QHYHRLPLS [En_HC] the result was no signal (0 of 6 replicates). Variant TLYGLTLSMSINKNSVA | EMTTREN | QQYDRLPLA [En_Gen] gave 6.5 nM (6 of 6 replicates). Variant HLSFPWQSGHDSMHNVA | NDSTLMT | QHYNRLPLS [En_Gibbs] gave 7.6 µM (2 of 6 replicates). Variant QISGITGHMSMLKNNVA | EMETREN | QQYDRLPLS [En_Gen] gave 6.9 nM (6 of 6 replicates). With KLLQEVTGHSRQRNSVA | HNSTRED | QQYDRLPLS [En_HC] the result was no signal (0 of 6 replicates). For KLSMITGHMSMSKNNVA | EMVTREN | QQYNRLPLS [En_Gen], the assay gave 2.0 nM (6 of 6 replicates). Variant KYSQSQLYEDRNVNAVA | NASQRMS | QQYHRLPLS [GP_Gibbs] showed 1.6 nM (6 of 6 replicates). Variant KLEDQMQTSIASDNSVA | DTNMGHE | QQYGRLPLV [En_Gibbs] gave 4.8 nM (6 of 6 replicates). With HISMSVGLTSFNKNSVA | ENSTREN | QQYDRLPLS [En_HC] the result was 79 nM (6 of 6 replicates).

Variant IVSQMMLWGLHAKNSIA | EAVTRLN | QQYDRLPLF [En_Gen] showed 39 nM (2 of 6 replicates). Variant KLMQSLQGEPKDWYNVA | EGESATV | QDYARLPLM [En_Gibbs] gave 230 nM (1 of 6 replicates). Variant RLFNKMGQLQNIAQNVA | NATTVID | QQYMRLPIT [En_Gibbs] gave no signal (0 of 6 replicates). Variant KVSQMQPYEERNKNNVA | QASTRMS | QQYHRLPLS [GP_Gibbs] gave 430 pM (6 of 6 replicates). Variant TISQMFLGESRNRNSVA | QTSTRES | QSYDRLPLS [En_HC] gave 7.1 nM (6 of 6 replicates). Variant IITQVDAYLSRNKNSIA | DQSTRGS | QQYDRLPLS [En_HC] gave 2.8 nM (6 of 6 replicates). Variant KLYQSMNFLGRVMNSIA | DASTIWD | QQYHRLPLS [En_HC] showed 110 nM (4 of 6 replicates). Variant HLQEQSFVGQKDYWSVA | NTECKYN | QQYARLPLM [En_Gibbs] showed 90 nM (6 of 6 replicates). Variant KCQQSQLYESRNKNAVA | NASLRED | QQYHRLPLS [GP_Gibbs] showed 3.7 nM (6 of 6 replicates).

With SLGLVTMLEYAGRNNVA | NNSTREQ | QQYDRLPLS [En_Gen] the result was 47 nM (6 of 6 replicates). For MVSQLMVWGLHAKNSIA | EAEHRIN | QQYDRLPLF [En_Gen], the assay gave 49 nM (1 of 6 replicates). For KMRVSLSQGIYRQDSVA | STDIRVL | QQYHHLPLS [En_Gibbs], the assay gave 5.8 nM (6 of 6 replicates). For KISFLDYRGSQWHNNIA | EGSQRAE | QQYIRLPLN [En_Gibbs], the assay gave 2.7 nM (6 of 6 replicates). With RLDSVMGQLTNRAQNVA | NATTVIA | QSYMRLPLV [En_Gibbs] the result was 3.0 nM (6 of 6 replicates). Variant KLRQVTGYESFNKNSVA | QTETREN | QDYDRLPLS [En_HC] showed no signal (0 of 6 replicates). With QLATEVHDNAKLRNSIA | ENELRAM | QQYFMLPLS [En_Gibbs] the result was 2.5 nM (6 of 6 replicates). Variant HVSMLTLQGMRHTNSVA | QMTTRVN | QQYDRLPLM [En_Gen] gave 120 nM (5 of 6 replicates). Variant NLDKHDYEPRQMINSIA | DMQTLVA | QQYASLPLD [En_Gibbs] showed 11 nM (6 of 6 replicates).

2 of these entries, quoted again:

CDR-L1	CDR-L2	CDR-L3	group	Kd (apparent)	seen in
NLDKHDYEPRQMINSIA	DMQTLVA	QQYASLPLD	En_Gibbs	11 nM	6 of 6
IVSQMMLWGLHAKNSIA	EAVTRLN	QQYDRLPLF	En_Gen	39 nM	2 of 6

Source: Li et al. 2023 (doi:10.1038/s41467-023-39022-2), MIT Lincoln Laboratory and A-Alpha Bio; data file from the FLAb repository.